One assay is filed under the species Homo sapiens. The assay is described as follows: Selectivity ratio of Ki for human recombinant adenosine receptor-3 to Ki for human recombinant adenosine receptor-1.
The target in the next assay is Adenosine receptor A1 (Homo sapiens, UniProt P30542). The assay is described as follows: Agonist activity at human recombinant adenosine receptor-1 expressed in CHO cells assessed as inhibition of forskolin-stimulated cAMP production at 10 uM preincubated for 45 mins prior forskolin-induction measured after 15 mins by immunoassay relative to 10 uM CPA. Type of assay: functional, cell-based. A general note: Changes in cAMP serve as a functional read-out for many G protein-coupled receptors.

Protein sequences, listed by entry. Tags and fused reporters are not part of them.
UniProt P30542, whole entry: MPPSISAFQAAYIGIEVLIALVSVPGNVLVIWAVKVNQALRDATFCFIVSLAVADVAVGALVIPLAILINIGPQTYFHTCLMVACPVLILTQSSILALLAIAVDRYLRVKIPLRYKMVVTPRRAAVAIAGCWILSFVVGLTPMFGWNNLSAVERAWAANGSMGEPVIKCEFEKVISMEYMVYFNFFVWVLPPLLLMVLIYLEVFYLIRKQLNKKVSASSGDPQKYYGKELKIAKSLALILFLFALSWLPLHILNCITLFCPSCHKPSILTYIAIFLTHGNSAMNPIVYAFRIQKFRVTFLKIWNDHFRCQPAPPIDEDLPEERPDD

The results in this text go back to ChEMBL document CHEMBL2010736 (ACS Med Chem Lett, 2011).

Broadly, the inhibition is the percentage by which the read-out fell short of the control.

Molecules are shown by their SMILES.

As to `O[C@@H]1[C@H](O)[C@@H]2C[C@@H]2[C@H]1n1cnc2c(NC3CCCCCC3)nc(Cl)nc21`, the Ratio Ki in the assay listed under Homo sapiens was 2.
For the compound `CC(Nc1nc(Cl)nc2c1ncn2[C@H]1[C@H](O)[C@H](O)[C@@H]2C[C@@H]21)C1CC1` (mixture of isomers), the inhibition at Adenosine receptor A1 is 45.5%.
